Source: patent US20050159360A1, “Compositions for the transport of therapeutic molecules into the lungs and use thereof for the treatment of lung cancers and pulmonary diseases” (SYNT:EM, a corporation of France, priority 2002, published 2005)

Assay: Pharmacokinetics/biodistribution of [14C]-tagged doxorubicin and vectorized doxorubicin in plasma and organs after intravenous injection in mice;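 also: radioactivity counted in plasma and organs of mice killed 1 to 60 min post-dose, converted to percentage of product per organ, five animals per time point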
Conditions: i.v., 1 mg/kg doxorubicin equivalent; for Percentage of product in Brain after intravenous injection / Percentage of product in Heart after intravenous injection / Percentage of product in Kidneys after intravenous injection / Percentage of product in Liver after intravenous injection / Percentage of product in Lungs after intravenous injection / Percentage of product in Plasma after intravenous injection: 14C radioactivity; for biodistribution in the lungs of doxorubicin coupled with the peptide vector, compared with free doxorubicin: result in words

Substance	Percentage of product in Brain after intravenous injection (time 1 minute)	Percentage of product in Heart after intravenous injection (time 1 minute)	Percentage of product in Kidneys after intravenous injection (time 1 minute)	Percentage of product in Liver after intravenous injection (time 1 minute)	Percentage of product in Lungs after intravenous injection (time 1 minute)	Percentage of product in Plasma after intravenous injection (time 1 minute)	Percentage of product in Brain after intravenous injection (time 5 minutes)	Percentage of product in Heart after intravenous injection (time 5 minutes)	Percentage of product in Kidneys after intravenous injection (time 5 minutes)	Percentage of product in Liver after intravenous injection (time 5 minutes)	Percentage of product in Lungs after intravenous injection (time 5 minutes)	Percentage of product in Plasma after intravenous injection (time 5 minutes)	Percentage of product in Brain after intravenous injection (time 15 minutes)	Percentage of product in Heart after intravenous injection (time 15 minutes)	Percentage of product in Kidneys after intravenous injection (time 15 minutes)	Percentage of product in Liver after intravenous injection (time 15 minutes)	Percentage of product in Lungs after intravenous injection (time 15 minutes)	Percentage of product in Plasma after intravenous injection (time 15 minutes)	Percentage of product in Brain after intravenous injection (time 30 minutes)	Percentage of product in Heart after intravenous injection (time 30 minutes)	also measured
AWSFRVSYRGISYRRSR-succ-dox [compound 2]	0.07%	0.47%	2.3%	18.4%	33.3%	1.07%	0.05%	0.41%	2.0%	25.7%	46.9%	0.7%	0.04%	0.33%	1.3%	35.7%	16.0%	0.32%	0.04%	0.26%	Percentage of product in Kidneys after intravenous injection (time 30 minutes): 1.0%; Percentage of product in Liver after intravenous injection (time 30 minutes): 35.1%; Percentage of product in Lungs after intravenous injection (time 30 minutes): 11.0%; Percentage of product in Plasma after intravenous injection (time 30 minutes): 0.19%; Percentage of product in Brain after intravenous injection (time 60 minutes): 0.04%; Percentage of product in Heart after intravenous injection (time 60 minutes): 0.35%; Percentage of product in Kidneys after intravenous injection (time 60 minutes): 1.1%; Percentage of product in Liver after intravenous injection (time 60 minutes): 37.2%; Percentage of product in Lungs after intravenous injection (time 60 minutes): 16.4%; Percentage of product in Plasma after intravenous injection (time 60 minutes): 0.12%; biodistribution in the lungs of doxorubicin coupled with the peptide vector, compared with free doxorubicin: significantly improves
RGGRLSYS-Cit-Cit-Cit-FSTSTGR-succ-dox [compound 3]	0.20%	0.50%	2.6%	10.9%	60.0%	1.60%	0.08%	0.24%	2.2%	16.1%	68.5%	0.80%	0.07%	0.15%	2.1%	15.7%	46.6%	0.46%	0.06%	0.15%	Percentage of product in Kidneys after intravenous injection (time 30 minutes): 1.8%; Percentage of product in Liver after intravenous injection (time 30 minutes): 21.8%; Percentage of product in Lungs after intravenous injection (time 30 minutes): 50.6%; Percentage of product in Plasma after intravenous injection (time 30 minutes): 0.35%; Percentage of product in Brain after intravenous injection (time 60 minutes): 0.07%; Percentage of product in Heart after intravenous injection (time 60 minutes): 0.11%; Percentage of product in Kidneys after intravenous injection (time 60 minutes): 1.8%; Percentage of product in Liver after intravenous injection (time 60 minutes): 23.9%; Percentage of product in Lungs after intravenous injection (time 60 minutes): 38.2%; Percentage of product in Plasma after intravenous injection (time 60 minutes): 0.18%; biodistribution in the lungs of doxorubicin coupled with the peptide vector, compared with free doxorubicin: significantly improves
